Source: patent US11339169B2, “P2X3 and/or P2X2/3 compounds and methods” (Asana BioSciences, LLC, priority 2016, dated 2022)

Sequences of proteins named here, by UniProt entry; tags and fusion partners are left off.
UniProt P56373, whole entry: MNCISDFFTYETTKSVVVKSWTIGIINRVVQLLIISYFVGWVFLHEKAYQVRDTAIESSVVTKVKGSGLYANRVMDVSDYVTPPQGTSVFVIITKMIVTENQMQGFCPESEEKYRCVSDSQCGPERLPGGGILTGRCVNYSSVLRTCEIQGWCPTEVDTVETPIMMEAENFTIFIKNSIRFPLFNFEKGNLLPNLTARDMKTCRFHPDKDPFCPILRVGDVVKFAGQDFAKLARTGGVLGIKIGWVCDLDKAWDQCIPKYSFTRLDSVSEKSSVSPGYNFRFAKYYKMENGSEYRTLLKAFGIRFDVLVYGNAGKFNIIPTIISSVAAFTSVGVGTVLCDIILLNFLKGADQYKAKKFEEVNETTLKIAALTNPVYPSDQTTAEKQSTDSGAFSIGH
UniProt Q9UBL9, whole entry: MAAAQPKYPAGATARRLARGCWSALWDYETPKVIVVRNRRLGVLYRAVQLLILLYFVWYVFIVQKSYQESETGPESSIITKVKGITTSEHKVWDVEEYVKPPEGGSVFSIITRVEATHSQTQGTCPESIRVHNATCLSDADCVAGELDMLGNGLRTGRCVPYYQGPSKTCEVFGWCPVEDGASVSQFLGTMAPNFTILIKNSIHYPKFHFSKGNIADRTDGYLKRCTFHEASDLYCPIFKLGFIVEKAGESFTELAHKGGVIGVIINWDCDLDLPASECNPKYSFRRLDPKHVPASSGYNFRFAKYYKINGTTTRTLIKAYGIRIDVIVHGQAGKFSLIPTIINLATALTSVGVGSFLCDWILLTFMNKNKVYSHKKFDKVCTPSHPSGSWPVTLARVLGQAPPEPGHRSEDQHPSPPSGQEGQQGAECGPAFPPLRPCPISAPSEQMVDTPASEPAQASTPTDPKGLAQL

Assays:
[1] = biological target: hP2X3 (Homo sapiens, UniProt P56373); assay: FLIPR intracellular calcium assay, hP2X3; settings: read-out: hP2X3 IC50, human P2X3-HEK cells, agonist at EC75
[2] = biological target: hP2X2/3 (Homo sapiens, UniProt P56373+Q9UBL9); assay: FLIPR intracellular calcium assay, hP2X2/3; settings: read-out: hP2X2/3 IC50, human P2X2/3-TRex293 cells, agonist at EC75

SMILES: CCC(C)n1ncc2nc(C(N)=O)nc(N[C@@H](c3cnc4ccccc4c3)C3CC3)c21 (some centres unmarked)
- IC50 [1]: 0.001 to 0.1 µM
- IC50 [2]: 1 to 10 µM
